The values below come from BindingDB's records for doi:10.1021/acs.jnatprod.0c01182 (Chinese Academy of Sciences, 2021).

By IC50 is commonly meant the concentration that gives 50% inhibition.

The nature of this data set: Reversal of P-gp-mediated multidrug resistance in human KB/VCR cells assessed as potentiation of vincristine-induced antiproliferative activity by measuring vincristine IC50 at 2 uM measured after 72 hrs by CCK8 assay (Rvb = 0.51 uM).

Turning to `CC(=O)O[C@H]1C[C@@H](C)[C@]23OC(C)(C)[C@H](C[C@H](OC(=O)c4ccccc4)[C@@]2(C)[C@@H]1OC(C)=O)[C@H]3OC(=O)c1ccccc1`, the IC50 was determined as 0.071 µM.
